Test results as given in article PMC6981440, “On-Membrane Dynamic Interplay between Anti-GM1 IgG Antibodies and Complement Component C1q” (International Journal of Molecular Sciences, 2019).

By UniProt entry, the sequences of proteins in these tests, tags left out. Residues count along the entry.
UniProt P02745, 23-245: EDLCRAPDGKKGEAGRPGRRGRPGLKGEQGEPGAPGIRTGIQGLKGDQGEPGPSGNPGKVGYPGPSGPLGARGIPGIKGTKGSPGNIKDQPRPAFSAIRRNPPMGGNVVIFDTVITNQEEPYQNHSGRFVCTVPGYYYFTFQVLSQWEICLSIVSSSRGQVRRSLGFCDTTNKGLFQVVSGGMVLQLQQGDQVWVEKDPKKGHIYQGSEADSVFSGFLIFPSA
complement component C1q, UniProt P02746, 28-253: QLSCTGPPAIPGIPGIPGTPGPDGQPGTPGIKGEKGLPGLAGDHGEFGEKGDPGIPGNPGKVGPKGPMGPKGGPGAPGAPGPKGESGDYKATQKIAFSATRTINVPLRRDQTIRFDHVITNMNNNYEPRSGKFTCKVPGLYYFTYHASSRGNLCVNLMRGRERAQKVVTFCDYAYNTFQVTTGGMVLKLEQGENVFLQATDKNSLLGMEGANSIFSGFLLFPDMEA
complement component C1q, UniProt P02747, 29-245: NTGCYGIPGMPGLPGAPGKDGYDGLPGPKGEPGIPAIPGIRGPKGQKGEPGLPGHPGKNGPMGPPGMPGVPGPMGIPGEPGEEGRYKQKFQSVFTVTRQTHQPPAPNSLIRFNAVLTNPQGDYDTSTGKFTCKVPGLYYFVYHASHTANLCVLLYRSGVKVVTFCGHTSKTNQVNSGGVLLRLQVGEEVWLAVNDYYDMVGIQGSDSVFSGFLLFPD

Target: mouse anti-GM1 IgG2b(κ) antibody GB2 (mouse)
Test: high-speed atomic force microscopy; C1q added at 5-10 μg/mL to GB2 hexameric rings formed on a DOPC membrane with 50% GM1; bound-state dwell time from successive images; room temperature

residence time: 0.49 s
Substance: complement component C1q (from UniProt P02745 23-245; P02746 28-253; P02747 29-245) (complex)
